Measured values taken from patent US20230286958A1, “PLASMA KALLIKREIN INHIBITORS” (Merck Sharp & Dohme LLC, priority 2020, published 2023).

By UniProt entry, the sequences of proteins in these tests, tags left out. Residues count along the entry.
UniProt P03952, 391-638 limits assumed: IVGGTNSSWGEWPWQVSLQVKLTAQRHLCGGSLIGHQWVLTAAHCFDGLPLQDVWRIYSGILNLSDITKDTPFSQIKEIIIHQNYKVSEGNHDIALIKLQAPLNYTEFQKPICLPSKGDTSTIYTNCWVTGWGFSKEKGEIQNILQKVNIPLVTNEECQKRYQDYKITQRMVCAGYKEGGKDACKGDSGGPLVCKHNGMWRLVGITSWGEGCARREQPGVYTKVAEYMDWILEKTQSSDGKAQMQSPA
UniProt P03952, 20-390 partner limits assumed: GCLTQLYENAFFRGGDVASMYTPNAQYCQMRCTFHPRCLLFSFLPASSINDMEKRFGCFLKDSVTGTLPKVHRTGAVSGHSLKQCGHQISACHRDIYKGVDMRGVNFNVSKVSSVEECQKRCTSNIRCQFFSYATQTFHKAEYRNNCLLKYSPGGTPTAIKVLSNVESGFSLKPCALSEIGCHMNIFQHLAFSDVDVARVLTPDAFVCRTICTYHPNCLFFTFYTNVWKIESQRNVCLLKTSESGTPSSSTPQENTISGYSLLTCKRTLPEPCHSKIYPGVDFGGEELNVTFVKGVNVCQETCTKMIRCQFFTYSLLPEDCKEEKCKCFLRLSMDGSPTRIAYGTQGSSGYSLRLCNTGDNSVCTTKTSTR
UniProt P03951, 388-625 limits assumed: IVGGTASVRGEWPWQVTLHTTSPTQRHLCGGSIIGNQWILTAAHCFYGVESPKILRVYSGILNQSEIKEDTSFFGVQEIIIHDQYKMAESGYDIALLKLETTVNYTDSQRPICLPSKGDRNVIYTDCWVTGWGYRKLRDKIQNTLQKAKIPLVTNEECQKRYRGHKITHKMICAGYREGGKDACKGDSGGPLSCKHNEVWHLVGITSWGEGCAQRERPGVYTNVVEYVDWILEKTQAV
UniProt P03951, 19-387 partner limits assumed: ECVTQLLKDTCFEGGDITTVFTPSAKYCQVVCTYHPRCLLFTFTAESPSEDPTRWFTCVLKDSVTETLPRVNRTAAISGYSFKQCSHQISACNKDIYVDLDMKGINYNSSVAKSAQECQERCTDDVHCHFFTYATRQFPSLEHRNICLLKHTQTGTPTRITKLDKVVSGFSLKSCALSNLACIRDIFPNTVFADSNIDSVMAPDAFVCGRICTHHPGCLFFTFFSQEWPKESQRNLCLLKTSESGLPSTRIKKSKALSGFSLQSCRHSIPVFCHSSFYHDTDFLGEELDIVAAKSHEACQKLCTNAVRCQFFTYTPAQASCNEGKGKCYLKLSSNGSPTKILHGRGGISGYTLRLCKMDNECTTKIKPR

What was measured:
Human plasma kallikrein = Human plasma kallikrein (Homo sapiens (Human), UniProt P03952); assay: Kallikrein Assay (fluorogenic substrate Acetyl-K-P-R-AFC); assay type: biochemical; details: read-out: PKal IC50
human Factor XIa = human Factor XIa (Homo sapiens (Human), UniProt P03951); assay: Factor XIa Assay (fluorogenic substrate GPR-AFC); assay type: biochemical; details: read-out: FXIa IC50

SMILES	IC50 (Human plasma kallikrein) [µM]	IC50 (human Factor XIa) [µM]
C[C@@H](c1cnc(N2C[C@H]3C[C@H]3C2=O)nc1)n1cc(NC(=O)c2cc(-c3c(C(F)F)ccc(Cl)c3F)c[n+]([O-])c2)cn1	0.0036	1.84
COCc1ncc(-c2c(C(F)F)ccc(Cl)c2F)nc1C(=O)Nc1cnn(C(C)c2cnc(N3C[C@H]4C[C@H]4C3=O)c(C)n2)c1 (single isomer, unassigned) [Example 125, 6-(3-Chloro-6-(difluoromethyl)-2-fluorophenyl)-3-(methoxymethyl)-N-(1-((S or R)-1-(6-methyl-5-((1R,5S)-2-oxo-3-azabicyclo[3.1.0]hexan-3-yl)pyrazin-2-yl)ethyl)-1H-pyrazol-4-yl)pyrazine-2-carboxamide]	0.0005	1.03
